# Ab-14 light chain CDR variants: yeast mating affinities

Target peptide (SARS-CoV-2 spike, HR2 region): PDVDLGDISGINAS

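The starting antibody came from a phage panning campaign against this peptide. Designed CDR sequences, proposed from the first random library and measured here. Several design methods are mixed in this list. In AlphaSeq, yeast of one mating type display the scFv and yeast of the other type display the target. After mating in shaken culture at 30 °C for 16 h, diploids were selected and their barcode pairs sequenced. Read counts were normalised to the haploid input and turned into Kd by a linear fit to BCL2-family pairs of known affinity, for each replicate. Each pool was mated in six replicate cultures.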

Each scFv is VH, a 15-residue (Gly4Ser)3 linker, VL, as in the parent Ab-14, and differs from it in the CDRs of the light chain only.
VH: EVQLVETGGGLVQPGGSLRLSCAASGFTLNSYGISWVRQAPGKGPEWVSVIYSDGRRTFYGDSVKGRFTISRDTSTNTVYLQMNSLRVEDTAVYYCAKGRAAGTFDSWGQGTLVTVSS
VL: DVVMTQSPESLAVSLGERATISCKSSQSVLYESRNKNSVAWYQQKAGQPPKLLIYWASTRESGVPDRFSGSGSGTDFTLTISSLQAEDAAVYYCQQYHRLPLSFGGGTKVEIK

The parent's light chain CDRs are KSSQSVLYESRNKNSVA, WASTRES, QQYHRLPLS; each variant's own CDRs replace them letter for letter.
Values are apparent Kd, the geometric mean of the replicates that gave a signal; lower means stronger binding.
An entry "no signal" has no value in the source: the pair was not observed among the diploids in any replicate. This suggests poor binding but is not conclusive.
The parent sequence was in this pool as ten entries: three were never detected, three once, and four in most replicates, with averages from 2.2 nM to 240 nM.

Kd (apparent) | detected | CDR-L1 | CDR-L2 | CDR-L3
3.5 nM | 6/6 | KQSQSFLYESRWKNSVA | GASQRES | QQYHRLPLS
1.7 nM | 6/6 | YLSQSVLYESRNKNSVA | NASTREM | QQYHRLPLI
4.9 nM | 6/6 | KISMYLNKESKNKNSVA | EMVNRES | QQYDRLPLS
3.0 nM | 6/6 | QISMLLNFESKKGSNVA | QMETRVN | QQYDRLPLS
330 pM | 6/6 | KLSQSMLYESRNKNNVA | NASTRMS | QQYHRLPLS
730 pM | 6/6 | MISDLTTYGSRNKNSVA | DLSTRGS | QQYHRLPLS
8.2 nM | 6/6 | SLYEMSVELSGKTHSVA | DNSTRGD | QQYFRLPLD
270 nM | 1/6 | KSSQSVIYESRNKNSVA | WASTREE | QQYARLPLS
860 pM | 6/6 | KISISYLYESRNKNSVA | EASTRES | QQYHRLPLM
1.5 nM | 6/6 | KWSQSVLMESRNKNSVA | EASTRES | QQYHRLPLS
720 pM | 6/6 | KLQQQDLYESRNKNSVA | SASTREE | QQYHRLPLS
1.1 nM | 6/6 | KLMQSELYESRNKNSVA | NASQRMS | QQYHRLPLS
16 nM | 6/6 | RIDDYPNMLGKNIESIA | EAALTLT | QQYARLPLS
6.7 nM | 6/6 | KIGFTLNMLEHKQNNVA | DLVTREN | QQYHRLPLS
3.3 nM | 6/6 | KSPQSHLYESRNKNSVA | HASTRED | QSYHRLPLS
1.2 nM | 6/6 | KLGQSVAMTSRMQNNVA | DLNERER | QQYHRLPLS
4.0 nM | 6/6 | KIGHMVTGTSRKGNSVA | QAETRLD | QQYHRLPLM
13 nM | 6/6 | KSSQSVEYESANKNSVA | WASTRED | QQYHRLPLS
370 pM | 6/6 | HQSPSVLYESRNKNSVA | EGSTREV | QQYHRLPLS
2.4 nM | 6/6 | KLSQSVLYESRNKNAVA | TASTRES | QQYHWLPLS
5.3 nM | 6/6 | NLSWKREMQNMDYYAVA | QTEIREA | QQYAILPLS
670 pM | 6/6 | KQSQSDLGESRNKNSVA | DASTRES | QQYHRLPLS
600 pM | 6/6 | KSSQSWLYESRNKNSVA | GASKREV | QQYHRLPLS
7.5 nM | 6/6 | KSSQSVLYEDRVKNSVA | GASTRES | QQYHRLPLS
530 pM | 6/6 | KLAQSVLYESRNKNSVA | GASTRES | QQYHRLPLS
1.4 nM | 6/6 | KLYENVGTMSHNKQSIA | DMERRED | QQYHRLPLS
430 pM | 6/6 | KVSQMQPYEERNKNNVA | QASTRMS | QQYHRLPLS
220 nM | 4/6 | KQSQSVLYESRNKNQVA | WASTREV | QQYHRLPLS
1.6 nM | 6/6 | QLQMDPGESLRSTHSIA | DVNIKDM | QQYARLPLA
150 nM | 4/6 | MISQLMNMGQFAINSVA | QAQTRNE | QQYDRLPLI
8.5 nM | 6/6 | MISQLINMGQFAINSVA | QAETRCN | QQYDRLPLV
2.0 nM | 6/6 | KLSQSVLYESRNKNSVA | GASTRED | QQYHRLPLS
180 nM | 5/6 | KSSQSVLYDSRNKNSVA | WASTRES | QQYHELPLS
860 nM | 2/6 | KQSMSVLYESRNKNSMA | WASTRES | QQYHRLPLS
3.2 nM | 6/6 | KSCQSVLYESHNKNSVA | SASTRES | QQYHRLPLS
2.3 nM | 6/6 | KSSQSILYESGNKNSVA | HASTRES | QQYHRLPLS
2.3 nM | 6/6 | KVSEMSAFLSSNRNNVA | DNSTRGS | QQYHRLPLS
6.8 nM | 1/6 | MISQVMNTLTRHGNNVA | DLTEREV | QQYFRLPLS
1.4 nM | 6/6 | KSSQSVLGEDRNKNSVA | DISTRES | QQYHRLPLS
19 nM | 6/6 | KSSQSVAYNSRNKNNVA | WASTRES | QQYHRLPLS
930 pM | 6/6 | KVQQSNLYESRNKNSVA | DASTRES | QQYHRLPLS
690 pM | 6/6 | KLMQSTLYESRNPNSVA | NASTRES | QQYHRLPLS
230 pM | 6/6 | KVSQAKLYESRNKNSVA | DASTRES | QQYHRLPLS
630 nM | 2/6 | KLSMSALMESFHKNSVA | ENSTREE | QHYHRLPLS
32 nM | 6/6 | KMSQSVLYEWRNKNSVA | WAETRES | QQYHRLPLS
720 pM | 6/6 | KVSQSELMESRNKNSVA | EASTRES | QQYHRLPLS
1.2 nM | 6/6 | KQSLSVLQESRNKNSVA | DASTRES | QQYHRLPLS
5.2 nM | 6/6 | KSSISYLYESENKFSVA | EASQRES | QQYHRLPLS
620 pM | 6/6 | KLSQSMLYESRNKNSVA | NASQRLS | QQYHRLPLS
11 nM | 6/6 | HLHTIMYTENIGENSIA | DANLHVD | QQYFRLPIS
59 nM | 6/6 | KSSQSVLKESRNMNSVA | NASTRER | QQYHRLCLS
no signal | 0/6 | KSSQSGLYESENKNSVA | EASTRES | QQYHRLPLS
33 nM | 4/6 | SLQSEALGGNQKTSSIA | GESVAMP | QQYERLPLD
10 nM | 6/6 | NLGFVDDNDNRGMMNVA | DVNTVGE | QQYNRLPLA
1.0 nM | 6/6 | KISMTYRYESQAKNSIA | EMTTREE | QSYHRLPLS
1.2 nM | 6/6 | KVSQSVLYESRNKNSVA | DGSTRES | QQYHRLPLS
24 nM | 6/6 | KVSQSVLQGQRNKSSVA | EASTRER | QQYHRLPLS
2.7 nM | 6/6 | KSSESWLYDSRNANSVA | QASTRES | QQYHYLFIS
2.0 nM | 6/6 | KLPFSTLYESRQKNSVA | NASTRES | QQYHRLPLS
1.3 nM | 6/6 | MLSYNLHDMGRNKNNVA | EMNKSTT | QDYHRLPLA
350 pM | 6/6 | KLSFSQLYESRNKNSVA | NASTRES | QQYHRLPLS
2.4 nM | 6/6 | SLVQKADYMDSERNNIA | NGRLRNE | QQYFHLPLT
16 nM | 6/6 | DSSQSHLYEGRNKNSVA | KASTRES | QQYHRLPLS
21 nM | 6/6 | TLGAATLEESRNKNSVA | EMSLRES | QSYNRLPLS
9.8 nM | 6/6 | KVAQGIFDGKRHSHSIA | EVSHLCD | QQYSRLPLE
560 pM | 6/6 | KSDQGELYESRNKNSVA | GASTRES | QQYHRLPLS

The first 9 entries again:

CDR-L1 | CDR-L2 | CDR-L3 | Kd (apparent) | detected
KQSQSFLYESRWKNSVA | GASQRES | QQYHRLPLS | 3.5 nM | 6/6
YLSQSVLYESRNKNSVA | NASTREM | QQYHRLPLI | 1.7 nM | 6/6
KISMYLNKESKNKNSVA | EMVNRES | QQYDRLPLS | 4.9 nM | 6/6
QISMLLNFESKKGSNVA | QMETRVN | QQYDRLPLS | 3.0 nM | 6/6
KLSQSMLYESRNKNNVA | NASTRMS | QQYHRLPLS | 330 pM | 6/6
MISDLTTYGSRNKNSVA | DLSTRGS | QQYHRLPLS | 730 pM | 6/6
SLYEMSVELSGKTHSVA | DNSTRGD | QQYFRLPLD | 8.2 nM | 6/6
KSSQSVIYESRNKNSVA | WASTREE | QQYARLPLS | 270 nM | 1/6
KISISYLYESRNKNSVA | EASTRES | QQYHRLPLM | 860 pM | 6/6

A sequence measured in both rounds can read differently, since the two assays cover different ranges.
The authors averaged sequences with at least three values out of six and counted those with two or fewer as poor binders.
As a blank, each scFv also met three strains without target: over all light chain designs, 4% of these pairings were detected, typically at 430 nM and seldom below 38 nM.

The measurements come from Li et al. 2023 (doi:10.1038/s41467-023-39022-2) through the FLAb antibody collection.